This is a selection; strong and weak results do not stand in their true shares. Active and inactive are the calls of the source.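 Rule for the calls: active = inhibition above about 35% when tested at 20 µM (limit read from the data); inactive = the rest.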

Sequences of proteins named here, by UniProt entry; tags and fusion partners are left off. A change or cut given only in a name is not applied to a line headed by its entry.
UniProt Q2TB90: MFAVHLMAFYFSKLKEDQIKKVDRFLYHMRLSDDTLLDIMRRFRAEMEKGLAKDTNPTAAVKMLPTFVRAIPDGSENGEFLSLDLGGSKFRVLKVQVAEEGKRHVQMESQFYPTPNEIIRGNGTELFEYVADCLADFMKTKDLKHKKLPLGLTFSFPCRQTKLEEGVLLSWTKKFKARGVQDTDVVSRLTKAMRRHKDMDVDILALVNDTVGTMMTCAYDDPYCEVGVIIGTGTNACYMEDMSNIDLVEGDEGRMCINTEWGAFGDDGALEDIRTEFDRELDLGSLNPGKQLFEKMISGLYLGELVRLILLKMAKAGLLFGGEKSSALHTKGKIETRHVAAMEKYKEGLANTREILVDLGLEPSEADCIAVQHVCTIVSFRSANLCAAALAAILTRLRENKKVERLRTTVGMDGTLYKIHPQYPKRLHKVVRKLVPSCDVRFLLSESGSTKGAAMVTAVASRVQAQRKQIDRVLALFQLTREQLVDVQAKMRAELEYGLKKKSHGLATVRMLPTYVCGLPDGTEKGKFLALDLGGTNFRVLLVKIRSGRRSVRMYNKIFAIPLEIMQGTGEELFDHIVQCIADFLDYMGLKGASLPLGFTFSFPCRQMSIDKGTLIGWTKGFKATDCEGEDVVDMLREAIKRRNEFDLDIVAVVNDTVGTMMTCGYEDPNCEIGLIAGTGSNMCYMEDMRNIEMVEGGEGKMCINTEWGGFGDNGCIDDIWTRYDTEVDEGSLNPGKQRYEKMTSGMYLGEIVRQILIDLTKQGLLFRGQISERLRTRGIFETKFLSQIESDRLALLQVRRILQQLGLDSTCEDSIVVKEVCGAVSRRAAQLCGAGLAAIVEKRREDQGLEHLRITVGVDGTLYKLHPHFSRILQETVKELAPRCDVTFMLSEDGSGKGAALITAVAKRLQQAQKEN

This test addresses Hexokinase HKDC1 (Homo sapiens) (UniProt Q2TB90). The test is described as follows: HKDC1 hexokinase inhibitors, primary screen, biochemical, fluorescence, uHTS (AID 493160).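 Note: plate controls were DMSO wells with enzyme for no effect and DMSO wells lacking enzyme for full effect.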 Particulars: recombinant HKDC1, G6PDH/diaphorase resazurin coupled fluorescence; at 20 µM; active compounds read high. Background: Resazurin is reduced to fluorescent resorufin, in cell work by metabolically active cells.
With `O=C(OC1CN2CCC1CC2)c1ccccc1` (centres undefined), the inhibition (commonly the drop in the measured response relative to a control, in per cent) was inactive: 7.77%.

For `CCC(=O)N1C2C3N(C(=O)CC)C1C1N(C(=O)CC)C(C(N1C(=O)CC)N3C(=O)CC)N2C(=O)CC`, the inhibition is inactive: 3.49%.

Regarding `COC(=O)c1cc2c(s1)N=C(c1ccccc1)N(C)P2(=O)N1CCOCC1` (centres undefined), the inhibition was inactive: 0.03%.

Turning to `CC(=O)NC(SC(=S)N(CC(C)C)CC(C)C)C(Cl)(Cl)Cl` (centres undefined), the inhibition was inactive: -15.8%.

`Cc1ccc(OP(=O)(Nc2ccccn2)Oc2ccc(C)cc2)cc1`: the inhibition is inactive: -7.04%.

Consider `CC(NC(=O)COC(=O)C(O)(c1ccccc1)c1ccccc1)c1ccccc1` (centres undefined), for which the inhibition is inactive: 5.48%.

For the compound `Cc1ccccc1OP(=O)(Nc1ccccn1)Oc1ccccc1C`, the inhibition is inactive: -0.09%.

For `O=c1c2cc([N+](=O)[O-])ccc2[nH]c2c([N+](=O)[O-])cc([N+](=O)[O-])cc12`, the inhibition was inactive: 26.6%.

For `CN(C)C(=O)Oc1noc2ccccc12`, the inhibition is inactive: -1.75%.

Consider `O=P(Nc1ccccn1)(c1ccc(Br)cc1)c1ccc(Br)cc1`, for which the inhibition is inactive: 7.22%.

`CN(C)C1(CNC(=O)c2ccc(Cl)c(S(N)(=O)=O)c2)CCCCC1`: the inhibition was inactive: 2.11%.

Take `COc1ccc(N)c([N+](=O)[O-])c1[N+](=O)[O-]`: the inhibition was inactive: 4.37%.

As to `O=P(Nc1nc2ccccc2s1)(c1ccccc1)c1ccccc1`, the inhibition was inactive: -2.77%.

Take `C[C@H]1OP(=O)(Oc2ccccc2)[C@H](O)[C@H](O)[C@H]1N=[N+]=[N-]` (some centres undefined): the inhibition was inactive: -0.58%.

With `O=[As](O)(c1ccccc1)c1ccc(O)cc1`, the inhibition was inactive: 20.4%.

Consider `O=[N+]([O-])c1ccc(O)c(/C=N/Nc2ccc([N+](=O)[O-])cc2[N+](=O)[O-])c1`, for which the inhibition was inactive: 7.12%.

For `CC(=O)NC(SC(=S)N(C)C)C(Cl)(Cl)Cl` (centres undefined), the inhibition is inactive: 7.5%.

For the compound `O=[N+]([O-])c1ncn(CCn2cnc([N+](=O)[O-])n2)n1`, the inhibition is inactive: 2.59%.

For `O=C(OC1CN2CCC1CC2)c1cccc(Cl)c1` (centres undefined), the inhibition was inactive: -8.61%.

In the case of `C(Cc1nn[nH]n1)Cc1nn[nH]n1`, the inhibition was inactive: -12.2%.

Turning to `Nc1ccc([As](=O)(O)c2ccc([N+](=O)[O-])cc2)cc1`, the inhibition is inactive: -6.56%.

Turning to `CC(C)C(=O)NC(Sc1ccccc1)C(Cl)(Cl)Cl` (centres undefined), the inhibition was inactive: -6.74%.

On to `O=P(Nc1nccs1)(c1ccccc1)c1ccccc1`, for which the inhibition is inactive: -1.75%.

Take `c1nnnn1CCn1cnnn1`: the inhibition is inactive: 3.28%.

As for `COc1ccc(C2=NCC(CBr)S2)cc1` (centres undefined), the inhibition is inactive: 2.61%.

For the compound `Cc1ccc(NP(=O)(Oc2ccccc2)Oc2ccccc2)nc1`, the inhibition was inactive: -3.88%.

As to `CCc1nc2c(n1)c1c(non1O)c1c2no[n+]1[O-]`, the inhibition is inactive: 19.9%.

As to `O=[N+]([O-])c1cc([N+](=O)[O-])c(CCNc2ccccc2)c([N+](=O)[O-])c1`, the inhibition was inactive: 14.1%.

Take `O=[N+]([O-])c1cccc2n[nH]nc12`: the inhibition is inactive: -6.98%.

Regarding `CC(=O)N1C2C3N(C(C)=O)C1C1N(C(C)=O)C(C(N1C(C)=O)N3C(C)=O)N2C(C)=O`, the inhibition is inactive: -9.6%.

`CCN(/C(=N/P(=O)(N1CCOCC1)N1CCOCC1)N1CCOCC1)c1ccc(OC)cc1`: the inhibition was inactive: -6.85%.

Consider `Nc1ccc([As](=O)(O)c2ccc(N)cc2)cc1`, for which the inhibition is inactive: -2.3%.

With `C[N+]1=C2C=CC=CC=C2SC12C([N+](=O)[O-])=CC([N+](=O)[O-])=C[C-]2[N+](=O)[O-]` (centres undefined), the inhibition is inactive: 20.4%.

As for `CC1CCN(C(=O)Oc2c(Cl)cc(Cl)c3cccnc23)CC1`, the inhibition is inactive: -0.26%.

As to `CC(C)=N/N=C(\N)N[N+](=O)[O-]`, the inhibition is inactive: 8.64%.

With `CN(C)C(=O)OCCc1n(C)cc[n+]1C`, the inhibition was inactive: -14.2%.

As for `O=P1(N(CCCl)CCCl)OCCCS1` (centres undefined), the inhibition was inactive: -2.49%.

`O=C(Nc1cc([As](=O)(O)O)ccc1O)c1ccccc1`: the inhibition was inactive: -3.96%.

Regarding `O=[N+]([O-])c1ncn(CCn2ncnc2[N+](=O)[O-])n1`, the inhibition was inactive: 2.76%.

As to `CC(C)(C)C(=O)NC(Sc1ccncn1)C(Cl)(Cl)Cl` (centres undefined), the inhibition was inactive: 1.76%.

For `O=C(O)CNc1ccc([As](=O)(O)O)cc1`, the inhibition was inactive: 9.93%.

Turning to `COC(=O)C1(C)COP(=O)(Nc2ccccc2)OC1` (centres undefined), the inhibition is inactive: -3.9%.

With `O=[N+]([O-])c1cccc(NC2=NCC(CBr)S2)c1` (centres undefined), the inhibition was inactive: 3.83%.

With `O=P(Nc1nc2ccc(Cl)cc2s1)(c1ccccc1)c1ccccc1`, the inhibition was inactive: 3.22%.

Take `CC(=O)Nc1ccc([As](=O)(O)O)cc1`: the inhibition is inactive: -1.26%.

As for `O=C(O)c1ccccc1[As](=O)(O)O`, the inhibition is inactive: 8.6%.

As to `CCCC1OP(N)(=O)OCC1CC` (centres undefined), the inhibition was inactive: 7.67%.

As to `Cc1cc(SC(NC(=O)c2ccc(F)cc2)C(Cl)(Cl)Cl)ncn1` (centres undefined), the inhibition is inactive: 7.1%.

Turning to `CCOP(=O)(Nc1ccccc1)OCC`, the inhibition was inactive: 2.81%.

Take `Cc1ccc(NP(=O)(Oc2ccccc2F)Oc2ccccc2F)nc1`: the inhibition was inactive: -6.71%.

On to `CN(C(=O)Cc1ccc(Cl)c(Cl)c1)[C@H]1CCCC[C@@H]1N1CCCC1`, for which the inhibition is inactive: -0.98%.

Take `Nc1cccc2ccc([As](=O)(O)O)cc12`: the inhibition was inactive: 17.2%.

As to `CCN(N=Nc1nonc1N)c1nonc1N`, the inhibition was inactive: -1.53%.

As to `CN(C(=O)Cc1ccc(Cl)c(Cl)c1)[C@H]1CCCC[C@H]1N1CCCC1`, the inhibition is inactive: -1.13%.

For the compound `Cc1ccc(N/C(=N/P(=O)(N2CCOCC2)N2CCOCC2)N2CCOCC2)cc1`, the inhibition is inactive: 6.2%.

Regarding `NC(=O)c1cc([N+](=O)[O-])cc([N+](=O)[O-])c1N`, the inhibition is inactive: -10.6%.

On to `CN1CCCC(OC(=O)C(c2ccccc2)c2ccccc2)C1` (centres undefined), for which the inhibition is inactive: 5.7%.

As to `Clc1ccc(Cl)c(NC2=NCC(CBr)S2)c1` (centres undefined), the inhibition was inactive: 2.47%.

Turning to `COc1ccccc1OP(=O)(Nc1ccc(C)cn1)Oc1ccccc1OC`, the inhibition is inactive: -7.71%.

As for `Cc1ccc(OP(=O)(Nc2nccs2)Oc2ccc(C)cc2)cc1`, the inhibition is inactive: -0.12%.

Regarding `Oc1ccccc1CNc1ccccn1`, the inhibition is inactive: 1.9%.

Turning to `O=C(NC(Sc1ccncn1)C(Cl)(Cl)Cl)c1ccccc1` (centres undefined), the inhibition is inactive: -11%.

Regarding `Nc1cc(N)c2nonc2c1[N+](=O)[O-]`, the inhibition is inactive: 3.73%.

For the compound `CC(C)CC(=O)NC(Sc1ccc(Cl)cc1)C(Cl)(Cl)Cl` (centres undefined), the inhibition is inactive: -1.38%.

The values are drawn from PubChem BioAssay AID493160 (Sanford-Burnham Center for Chemical Genomics, 2011).
